Results: ChEMBL document CHEMBL3351455, “Discovery of 2-(cyclopentylamino)thieno[3,2-d]pyrimidin-4(3H)-one derivatives as a new series of potent phosphodiesterase 7 inhibitors” (J Med Chem, 2014)

Chains of the proteins cited; added tags and fusions are not shown. Lines headed by an entry give the natural chain unless they say otherwise; changes in a name come on top.
UniProt Q13946: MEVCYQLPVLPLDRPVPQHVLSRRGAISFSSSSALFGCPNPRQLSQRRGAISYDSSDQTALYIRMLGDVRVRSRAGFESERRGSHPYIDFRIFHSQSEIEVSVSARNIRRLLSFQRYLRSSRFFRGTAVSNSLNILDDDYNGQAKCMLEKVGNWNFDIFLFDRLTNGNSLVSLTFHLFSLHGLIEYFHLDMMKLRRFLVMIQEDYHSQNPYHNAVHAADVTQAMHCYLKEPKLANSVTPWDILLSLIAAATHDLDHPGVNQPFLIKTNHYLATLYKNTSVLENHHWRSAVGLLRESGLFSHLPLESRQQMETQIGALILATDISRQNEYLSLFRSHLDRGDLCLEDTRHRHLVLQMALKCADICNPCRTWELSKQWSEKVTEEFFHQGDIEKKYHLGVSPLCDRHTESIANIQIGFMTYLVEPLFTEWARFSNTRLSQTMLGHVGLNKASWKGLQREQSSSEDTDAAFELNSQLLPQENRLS

Target: High affinity 3',5'-cyclic-AMP phosphodiesterase 7A (Homo sapiens, UniProt Q13946)
Assay: Inhibition of human PDE7A1 expressed in insect cells assessed as inhibition of [3H]cAMP to [3H]AMP hydrolysis after 30 mins by scintillation counting

With `C#Cc1csc2c(=O)n(CC)c(NC3CCCC3)nc12` the IC50 was 0.045 µM.
